Source: article PMC5626944, “TC299423, a Novel Agonist for Nicotinic Acetylcholine Receptors” (Frontiers in Pharmacology, 2017)
“And” between values parts separate entries of the source, which are not always exact repeats. Equal values may be shown once.

The chains behind the UniProt entries cited, without tags or fusion partners. Residues count along the entry.
UniProt O70174, 31-629: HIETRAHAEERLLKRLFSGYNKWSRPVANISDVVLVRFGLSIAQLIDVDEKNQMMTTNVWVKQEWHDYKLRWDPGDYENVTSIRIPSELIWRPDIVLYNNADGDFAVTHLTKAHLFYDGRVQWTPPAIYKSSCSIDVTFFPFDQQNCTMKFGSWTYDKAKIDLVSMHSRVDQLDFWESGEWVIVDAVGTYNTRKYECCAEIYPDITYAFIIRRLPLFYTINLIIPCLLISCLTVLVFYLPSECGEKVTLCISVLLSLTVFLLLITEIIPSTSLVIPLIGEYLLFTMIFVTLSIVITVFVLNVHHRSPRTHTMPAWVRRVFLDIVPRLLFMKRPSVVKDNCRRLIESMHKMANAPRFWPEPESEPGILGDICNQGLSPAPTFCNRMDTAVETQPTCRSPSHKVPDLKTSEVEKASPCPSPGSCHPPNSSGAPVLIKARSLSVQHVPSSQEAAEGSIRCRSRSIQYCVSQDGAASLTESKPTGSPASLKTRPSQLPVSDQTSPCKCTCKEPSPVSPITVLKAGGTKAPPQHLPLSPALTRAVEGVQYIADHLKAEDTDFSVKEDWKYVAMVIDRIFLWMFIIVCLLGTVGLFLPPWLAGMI
UniProt Q9ERK7, 26-501: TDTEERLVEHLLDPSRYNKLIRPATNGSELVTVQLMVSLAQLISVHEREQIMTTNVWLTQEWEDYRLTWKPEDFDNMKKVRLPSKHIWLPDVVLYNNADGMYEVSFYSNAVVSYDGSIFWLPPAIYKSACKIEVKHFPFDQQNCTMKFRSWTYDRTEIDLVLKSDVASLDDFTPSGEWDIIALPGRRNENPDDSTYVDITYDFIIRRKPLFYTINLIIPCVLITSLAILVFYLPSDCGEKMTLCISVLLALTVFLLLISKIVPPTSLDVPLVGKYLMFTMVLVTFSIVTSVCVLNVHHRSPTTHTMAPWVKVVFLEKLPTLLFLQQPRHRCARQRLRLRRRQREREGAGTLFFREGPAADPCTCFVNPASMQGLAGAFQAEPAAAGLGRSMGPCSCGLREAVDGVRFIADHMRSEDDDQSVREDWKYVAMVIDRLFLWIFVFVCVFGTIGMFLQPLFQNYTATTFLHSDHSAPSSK
UniProt Q9R0W9, 31-494: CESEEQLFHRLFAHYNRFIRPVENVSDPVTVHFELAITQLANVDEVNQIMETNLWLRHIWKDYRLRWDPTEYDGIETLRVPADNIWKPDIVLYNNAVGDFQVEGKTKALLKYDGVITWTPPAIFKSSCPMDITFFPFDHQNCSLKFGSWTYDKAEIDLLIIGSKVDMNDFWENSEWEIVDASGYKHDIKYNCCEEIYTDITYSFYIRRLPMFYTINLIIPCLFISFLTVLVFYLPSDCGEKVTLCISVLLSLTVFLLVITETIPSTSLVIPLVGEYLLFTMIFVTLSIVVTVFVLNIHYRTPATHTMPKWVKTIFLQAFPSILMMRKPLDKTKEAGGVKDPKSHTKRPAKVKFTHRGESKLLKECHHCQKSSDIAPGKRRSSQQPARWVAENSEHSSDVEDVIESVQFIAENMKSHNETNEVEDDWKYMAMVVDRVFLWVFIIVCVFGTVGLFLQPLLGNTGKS

Columns and labels:
α4β2* nAChRs = α4β2* nAChRs (Mus musculus, UniProt O70174+Q9ERK7); format: biochemical; conditions: calculated from Michaelis–Menten curve fit
Description: (§1) Regions of interest were dissected from fresh mouse brains and homogenized in ice-cold isotonic sucrose (0.32 M), buffered with HEPES (5 mM, pH 7.5). The suspension was centrifuged at 12,000 × g for 20 min.
Superfusion proceeded at 0.7 mL/min for 10 min before stimulation with agonist for 20 s. Selected aliquots were perfused with α-CtxMII (50 nM) for 3 min immediately before stimulation. […] Fractions (∼0.1 mL) were collected into 96-well plates at 10 s intervals for 4 min (starting ∼1 min before stimulation).

α6β2 nAChRs = tested on: α6β2 nAChRs; set-up: method as in Post et al., 2015; conditions: oocyte expression system; ref Post et al., 2015; cited from earlier work
α6β2* nAChRs = α6β2* nAChRs (Mus musculus, UniProt Q9ERK7+Q9R0W9); format: biochemical
Description: as §1, with “min. The pellet was re-suspended in the appropriate uptake buffer ([Grady et al., 2001]; [Salminen et al., 2004]; [Marks et al., 2006]) and used immediately.” for “min.”
Superfusion was carried out at 22°C using a buffer containing: NaCl, 128 mM; KCl, 2.4 mM; CaCl2, 3.2 mM; MgSO4, 1.2 mM; KH2PO4, 1.2 mM; HEPES, 25 mM; glucose, 10 mM; ascorbic acid, 1 mM; pargyline, 0.01 mM; 0.1% BSA; nomifensine, 1 μM (to prevent the re-uptake of dopamine); atropine, 1 μM (to prevent muscarinic receptor activation); pH 7.5. Superfusion proceeded at 0.7 mL/min for 10 min before stimulation with agonist for 20 s. Selected aliquots were perfused with α-CtxMII (50 nM) for 3 min immediately before stimulation. This concentration of α-CtxMII was sufficient to inhibit α6β2^∗-nAChRs in the mouse striatum ([Salminen et al., 2004], [2007]). Fractions (∼0.1 mL) were collected into 96-well plates at 10 s intervals for 4 min (starting ∼1 min before stimulation). After adding 0.15 mL of Optiphase SuperMix scintillation cocktail, radioactivity was measured using a 1450 MicroBeta TriLux counter (Perkin Elmer Life Sciences).

Compound: C1=C(/c2cncnc2)CCCNCC/1 [TC299423, (E)-5-(pyrimidin-5-yl)-1,2,3,4,7,8-hexahydroazocine]
- Maximal response, α-CtxMII-resistant [3H]-dopamine release (α4β2* nAChRs): 6.06 ± 0.37 units
- Efficacy relative to ACh (α6β2 nAChRs): 59%
- Maximal release relative to that of nicotine (α6β2* nAChRs; WT and α5KO): 50–54%
- Potency for α6β2* relative to α4β2* (α6β2* nAChRs; patch-clamp and [3H]dopamine release data sets): 2.5 fold and ~3 fold
